One may read the IC50 as the concentration needed to halve the response being measured.

The chains behind the UniProt entries cited, without tags or fusion partners.
UniProt O00408, whole entry: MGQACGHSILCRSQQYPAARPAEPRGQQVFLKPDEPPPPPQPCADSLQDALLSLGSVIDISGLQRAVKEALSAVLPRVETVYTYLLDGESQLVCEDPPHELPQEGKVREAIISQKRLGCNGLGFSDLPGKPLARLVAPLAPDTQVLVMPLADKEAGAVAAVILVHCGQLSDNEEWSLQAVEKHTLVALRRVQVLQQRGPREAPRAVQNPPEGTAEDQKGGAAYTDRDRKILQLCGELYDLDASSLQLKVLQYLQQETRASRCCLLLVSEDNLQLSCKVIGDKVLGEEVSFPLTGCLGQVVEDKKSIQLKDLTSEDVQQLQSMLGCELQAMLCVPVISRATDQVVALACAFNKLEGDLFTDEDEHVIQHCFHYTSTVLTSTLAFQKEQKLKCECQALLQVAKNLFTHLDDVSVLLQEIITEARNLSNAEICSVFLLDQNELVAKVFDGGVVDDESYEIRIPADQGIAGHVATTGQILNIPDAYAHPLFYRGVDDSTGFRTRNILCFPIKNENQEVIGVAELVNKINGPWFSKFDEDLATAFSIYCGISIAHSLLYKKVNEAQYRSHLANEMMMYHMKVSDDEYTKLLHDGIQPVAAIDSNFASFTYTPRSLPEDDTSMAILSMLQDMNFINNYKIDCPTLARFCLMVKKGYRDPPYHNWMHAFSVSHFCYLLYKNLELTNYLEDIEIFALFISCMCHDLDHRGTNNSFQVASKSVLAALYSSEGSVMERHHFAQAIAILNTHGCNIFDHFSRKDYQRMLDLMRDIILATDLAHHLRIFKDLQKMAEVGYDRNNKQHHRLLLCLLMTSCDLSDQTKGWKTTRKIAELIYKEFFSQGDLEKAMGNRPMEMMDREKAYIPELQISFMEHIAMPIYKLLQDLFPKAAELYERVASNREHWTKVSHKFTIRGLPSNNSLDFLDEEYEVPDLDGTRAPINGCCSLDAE

This note sets out measurements from EP1329454A1, “THIENOPYRIMIDINE COMPOUNDS AND THEIR SALTS AND PROCESS FOR PREPARATION OF BOTH” (NIPPON SODA CO., LTD., priority 2000, dated 2002).

For the experiment, the target named is PDE 2 (cGMP stimulated PDE) (Homo sapiens, UniProt O00408). In words: Phosphodiesterase inhibiting effect, PDE 2 separated from human platelets. The following applies: isozyme from human platelets; [3H]-cAMP or [3H]-cGMP substrate; read-out: PDE inhibiting activity : IC50(nM) PDE2. Format: biochemical. The text has this: PDE 5 (cGMP specific PDE), PDE 3 (cGMP inhibited PDE) and PDE 2 (cGMP stimulated PDE) were separated from the platelets, PDE 1 (Ca-calmodulin dependent PDE) and PDE 4 (cAMP specific PDE) were separated from the heart and the kidney respectively. The method of Thompson, et al was partially modified to measure phosphodiesterase activities: […] of [3H]-cAMP or [3H]-cGMP was decomposed with phosphodiesterase. The produced 5'-AMP or 5'-GMP was decomposed to adenosine or guanosine with a snake venom (Sigma V7000). The reaction solution was added to anion exchange resin (Bio-Rad Co. Ltd., AG1-X8). Non-adsorbed adenosine or guanosine was counted by a liquid scintillation counter.

Turning to `CCCc1nn(C)c2c(=O)[nH]c(-c3cc(S(=O)(=O)N4CCN(C)CC4)ccc3OCC)nc12` [Control, Sildenafil, reference compound], the IC50 is 30000 nM.
